# Apparent affinities of Ab-91 variants for a coronavirus HR2 peptide

Reference: Engelhart et al. 2022, doi:10.1038/s41597-022-01779-4. File: FLAb, binding data.

The target is the same throughout: PDVDLGDISGINAS, from the HR2 region of SARS-CoV-2 spike.

The variants keep the light chain, the linker and the frameworks of Ab-91 (scFv order VL, the linker GGGGSGGGGSGGGGS, VH).
VL: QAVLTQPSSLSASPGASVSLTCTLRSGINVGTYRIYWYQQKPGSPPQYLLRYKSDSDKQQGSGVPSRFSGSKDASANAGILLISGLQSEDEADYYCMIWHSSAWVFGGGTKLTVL
VH: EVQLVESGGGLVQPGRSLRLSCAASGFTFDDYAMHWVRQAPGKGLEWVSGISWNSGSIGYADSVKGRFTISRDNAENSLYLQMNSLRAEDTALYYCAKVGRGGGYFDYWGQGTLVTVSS

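Phage display of a naive human antibody library on the peptide gave the parent. The library (AAYL51) carries one to three amino acid substitutions per variant, with no insertions or deletions. AlphaSeq pools MATa yeast showing the antibodies with MATalpha yeast showing the peptide. Mating (16 h, 30 °C) was followed by selection of diploids and sequencing of their barcodes. A regression on co-assayed BCL2-family reference pairs converts the normalised counts of each replicate to an apparent Kd. Mating was done three times.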

Each variant is given by its three heavy chain CDRs, as the data file delimits them; those of the parent are GFTFDDYAMH, GISWNSGSIGYADSVK, VGRGGGYFDY. Numbers give log10(Kd / nM), so 0 is 1 nM and 3 is 1 µM. Smaller is tighter. Where no diploid with the target was found in that replicate, the entry reads "ND": below detection, most likely a poor binder, though not proof of it. Nonspecific signal, from three strains lacking the peptide, appeared in 21% of pairings of library AAYL51, centred on 4.54 (5% of these signals below 3.26); values are not corrected for it. For each scFv, signals with the empty controls are counted beside the result, with their mean in brackets.

| CDR-H1 | CDR-H2 | CDR-H3 | replicates, log10 nM | empty controls |
|---|---|---|---|---|
| GFTFDDYFMH | GISWNSGSIGYADSVK | VARGGKYFDY | ND / 3.41 / 3.44 | 0/9 |
| GFTFDDYAMH | GISWNSGSIGYADSVK | VYRGGGQFDY | 1.09 / 0.88 / 0.38 | 0/9 |
| GFTFDDYAMH | GISWNSGSIGYADSVK | VQRGGGSYDY | ND / ND / ND | 0/9 |
| GFCFDDHAMH | GISWNSGSIGYADSVK | VPRGGGYFDY | 5.54 / 4.79 / ND | 6/9 (4.98) |
| GFTFDDYAMH | GISWNSGSIGYADSVK | VGRGIQYFDY | 4.88 / 4.50 / ND | 1/9 (4.99) |
| GFTFDDYAMH | GFSWNSGSIYYADGVK | VGRGGGYFDY | ND / ND / ND | 0/9 |
| IFTFDDYAMH | GISWNSGRIGYADSVK | DGRGGGYFDY | ND / ND / 4.13 | 0/9 |
| GFTFDDYAMH | GIMWNRGSIGYAKSVK | VGRGGGYFDY | ND / 5.07 / ND | 2/9 (4.28) |
| GFTFDDYAMH | GISWNSGSIGYADSVK | VIRGSGYPDY | 4.32 / 4.64 / ND | 5/9 (4.60) |
| GFTFDDYAMH | GISWNSGSIGYADSVW | VGGGGGYFDW | 5.20 / 4.53 / 5.65 | 5/9 (4.17) |
| RFTFDDYAMQ | GISWNSGSIGYADSVK | VGRGGQYFDY | ND / ND / ND | 1/9 (3.79) |
| GFTFDDWAHH | YISWNSGSIGYADSVK | VGRGGGYFDY | 4.08 / 4.78 / 5.97 | 9/9 (5.40) |
| GFMFDDSAMH | GISWNSGSIGYADSVK | VGRGGGIFDY | 5.59 / ND / 4.45 | 4/9 (4.60) |
| KFTFDDYAMH | GISWNSNSIGYADSVH | VGRGGGYFDY | 4.38 / ND / ND | 0/9 |
| GFTFDDYAMH | GKIWNSGSIGYADSVK | VGRGFGYFDY | ND / 5.02 / 5.23 | 3/9 (5.18) |
| GFTFDDYAMH | GHSWNSGSIGYADKVK | VGRGGGYCDY | 5.52 / 5.19 / 4.11 | 7/9 (4.96) |
| GFTFDDYAEH | GISWTSGSIGYADSVK | AGRGGGYFDY | ND / ND / ND | 1/9 (4.33) |
| GFTFDDYAMH | GISWNSGSIGYADSVK | WGRGGGYKDY | ND / ND / ND | 1/9 (3.43) |
| GFTFDDYAMH | GISWNSGSYEYADSVK | VGNGGGYFDY | ND / ND / ND | 0/9 |
| GFTFDCYAMH | GISWNSGSIGYADSVK | QMRGGGYFDY | ND / ND / ND | 0/9 |
| RFTFDDYAMH | GIIWNSGSIGYADSVK | SGRGGGYFDY | 5.25 / ND / ND | 2/9 (5.20) |
| GFTFDDYAMH | GISWNSGSIGYADSVK | VGRGGGYMDY | ND / ND / ND | 1/9 (4.65) |
| GFTFYDDAMH | GLSWNSGSIGYADSVK | VGRGGGYFDY | ND / ND / 3.44 | 2/9 (2.66) |
| GFTFDDYAMH | GISWNSGSKGYADYVK | VARGGGYFDY | 4.51 / 3.50 / 4.19 | 4/9 (4.22) |
| GFTFDDYAMH | GSSWNSGSIGYPDSVK | VGRTGGYFDY | 5.40 / 4.44 / ND | 4/9 (4.82) |
| GFCFDDYAMH | GISLGSGSIGYADSVK | VGRGGGYFDY | ND / 4.24 / ND | 0/9 |
| GRTFDDYAMH | GIWWNSGHIGYADSVK | VGRGGGYFDY | ND / ND / 4.96 | 2/9 (4.74) |
| CFTFDDYAMH | RISWNSGSIGYADPVK | VGRGGGYFDY | ND / ND / ND | 0/9 |
| GFTFDPYAMH | GISWNSGSIGYADSVK | VGCGGGYFDY | ND / ND / ND | 0/9 |
| GFTFDPYAMH | GISWNSGSIGYADSCK | VGRGGGYFDY | ND / ND / ND | 0/9 |
| GFTFDDYAMI | GISWNSGSIGSADSVK | VGRGGEYFDY | 4.01 / 5.42 / ND | 5/9 (5.01) |
| GFTFDDYAMH | GISWNSHSWGDADSVK | VGRGGGYFDY | ND / 4.21 / ND | 1/9 (4.33) |
| GFTFDDYAMH | GISWNSGSIGYADSVA | VGRGGNYFDA | ND / 2.84 / 2.86 | 0/9 |
| GFTFDDYAMC | GISWNSGSIGYADWVK | VGRLGGYFDY | 4.22 / ND / ND | 5/9 (4.47) |
| GFTFQDYAMH | GISWNSGSIGYADSVW | VGRGGGYFDY | 1.33 / 3.28 / 2.11 | 0/9 |
| GFTFDTYAMH | GISWNSGSIGYAASVK | VGRGGGYFDK | ND / ND / ND | 0/9 |
| GFTFDDYAMH | GISTNSGSGGYADSVK | VGRGGGYFDM | ND / 4.51 / 4.28 | 3/9 (4.67) |
| GFTFDDYAMH | GIVWNSGHIGYADSVK | VGRGGGTFDY | ND / ND / ND | 1/9 (3.74) |
| GFTFDDYAMH | GISWNSGGIGYADSVK | VGRGMLYFDY | 3.89 / 4.58 / 4.90 | 7/9 (4.84) |
| GFTFDDYACH | GISWNSGSIPYADSVK | VGRGGGYFYY | ND / ND / ND | 2/9 (5.02) |
| GFTFDDYAMH | GISWNSGSIIYADCVK | VGRGGGQFDY | 5.86 / 4.65 / 5.16 | 6/9 (5.13) |

Parent in this assay: reference entry 1.86, copy in this library 0.88.